# Source: PubChem BioAssay
# MITF act: increases MITF-driven TRPM1 promoter luciferase signal; SK-MEL-5 TRPM1-promoter luciferase, 24 h; % of positive control, neutral wells = 0; actives 0.75% (n = 300,000); activation, % at 12.5 µM; AID 588334;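 active = mean activation of at least 80% with every replicate also reaching 80%; inconclusive = mean reaches 80% but some replicate falls short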;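 also: 0% = neutral control wells and 100% = parthenolide positive control wells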
# PglD DTNB: inhibitors of Campylobacter jejuni PglD acetyltransferase. actives 0.098% (n = 360,000). purified PglD enzyme, DTNB colorimetric CoA detection. inhibition, % at 12.5 µM. AID 602405; in the data active = inhibition above about 16%, passing the limit was not always enough; inconclusive = no clear call, values can overlap the other calls
# Yeast UUG start: alters start codon recognition fidelity in yeast | S. cerevisiae UUG-firefly luciferase reporter, luminescence/redox ratio | activity score, % at 18.7 µM | hit rate 0.13% among 350,000 | AID 602363;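 active means replicate mean at a twofold rise or more, about +100% in these data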;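 further: firefly luciferase made from a UUG start codon reports start codon fidelity; reporter light over untreated wells divided by growth signal over untreated wells; some hits fall short of that in this replicate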
# Wnt act: activates Wnt/beta-catenin signaling in a reporter cell assay; activator, plate reader; activation, % at 9.35 µM; actives 1.2% (n = 300,000); AID 743398; in the data active = activation above about 30%, passing the limit was not always enough; inconclusive = no clear call, values can overlap the other calls;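 also: 0% = neutral control wells and 100% = positive control wells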
# miR-122 sensor: blocks miR-122 activity in Huh7 sensor cells; Huh7 miR-122 Renilla luciferase sensor, 48 h; neutral wells = 0, positive control = 100; actives 0.3% (n = 340,000); activation (reporter increase), % at 12.5 µM; AID 602342;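 active = mean replicate activation score at least 90 and every replicate individually at or above 90; inconclusive = only one of the two criteria met; inactive = neither criterion met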;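 also: higher luciferase means less miR-122 activity so hits act as miR-122 inhibitors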
# esBAF inh: blocks esBAF chromatin remodeling in mouse ES cells; actives 2% (n = 350,000); Bmi1-luciferase knock-in reporter, 24 h; 100% = twice the neutral-well signal; reporter increase, % at 12.5 µM; in the data active = activation above about 40%; inconclusive = no clear call, values can overlap the other calls;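 also: 0% = median of the plate's neutral control wells and 100% = double that signal; a rise in the Bmi1 reporter signal indicates esBAF inhibition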
# * marks the source's active call; other numbers are inactive results; ? = inconclusive; / = no result; [ ] = dose if it differs, or a comment. Sampled rows, rich in hits. Any-hit rate of the full collection: about 2.8%.
MITF act,PglD DTNB,Yeast UUG start,Wnt act,miR-122 sensor,esBAF inh,SMILES
-5.8,/,/,2.1,-3.0,51.5*,CC(Sc1nc2ccccc2s1)C(=O)NCc1ccc2c(c1)OCO2 (stereo unspecified)
/,0.4,-4.2,/,/,/,C[C@]12CCC3C4(C=CC5(C=C4C(=O)c4ccc(F)c(F)c4)C[C@@H](O)CC[C@]35C)C1CC[C@@]2(O)CN1CCC(C(N)=O)CC1 (stereo partly specified)
93.8*,-1.7,-7.9,?,/,/,O=C(COc1ccc(Cl)cc1Cl)Nc1cccnc1
-0.4,-4.4,-13.6,/,7.7,13.8,O=C(CCCOc1ccc(Cl)cc1Cl)Nc1ccncc1
/,3.8,-10.7,37.3*,-0.3,37.5,CN(c1cccc(NC(=O)COc2ccc(Cl)cc2Cl)c1)S(C)(=O)=O
70.7,-3.8,-13.4,11.0,9.5,79.4*,O=C(COc1ccc(Cl)cc1Br)Nc1ccncc1
65.3,-123.6,13.6,/,-3.1,62.1*,CN(C)C(=O)c1ccc(COc2ccccc2Br)o1
16.9,/,/,/,/,/,O=C(Nc1nccs1)c1ccc(COc2ccc(Cl)cc2)o1
61.4,0.1,-22.3,/,-4.1,49.8*,O=C(Nc1nccs1)c1ccc(COc2ccccc2Br)o1
10.0,2.8,-20.4,/,/,20.7,COc1ccccc1OCc1ccc(C(=O)N(C)C)o1
91.4*,-7.7,-14.7,45.4*,/,57.0*,CC(C)c1ccc(OCc2ccc(C(=O)N(C)C)o2)cc1
50.5,1.9,-21.4,24.0,-3.5,60.5*,O=C(Nc1nccs1)c1ccc(COc2ccc(F)cc2)o1
/,-0.2,/,/,2.7[16.7 µM],5.1,O=C(C[C@@H]1CC[C@H](NC(=O)C2CCC2)[C@H](CO)O1)NCC1CC1
/,-1.0,1.3,/,11.2[16.7 µM],-5.1,C[C@H]1CN([C@@H](C)CO)C(=O)c2cccc(NS(=O)(=O)c3ccccc3)c2O[C@H]1CN(C)S(C)(=O)=O
/,-4.9,-19.1,/,-1.4,53.4*,O=C(Nc1ccc2c(c1)nc1n2CCOC1)C1CCCCC1
9.1,/,/,10.2,/,13.1,O=C(O)c1cncc(C#Cc2ccccc2)c1
46.6,/,/,-2.1,/,61.2*,O=C(O)c1cncc(C#CCC2CCCCC2)c1
1.3,-0.4,-5.4,/,215.5*,4.2,Cc1ccc(NC(=O)c2ccc(S(=O)(=O)N3CCOCC3)cc2)nc1
97.4*,/,/,36.3*,/,/,Cc1ccnc(NC(=O)c2ccc(S(=O)(=O)N3CCC(C)CC3)cc2)c1
32.3,1.5,1.0,20.5,/,57.1*,Cc1ccnc(NC(=O)c2ccc(Cl)c(S(=O)(=O)N3CCCCC3)c2)c1
4.5,3.1,-12.5,-3.1,-6.0,21.0,Cc1ccc(NC(=O)c2ccc(C)c(S(=O)(=O)N3CCOCC3)c2)nc1
68.5,-3.5,3.7,-3.3,-2.2,83.4*,O=C(Nc1ccccn1)c1ccc(Cl)c(S(=O)(=O)N2CCCCCC2)c1
/,-0.2,-7.3,/,1.8[16.7 µM],-0.1,COc1ccc(NC(=O)N[C@@H]2CC[C@H](CC(=O)NCc3ccccn3)O[C@@H]2CO)cc1
/,-0.3,-3.1,/,3.1[16.7 µM],-6.2,O=C(C[C@@H]1CC[C@H](NC(=O)CCN2CCCCC2)[C@H](CO)O1)NCc1ccc(Cl)c(Cl)c1
71.8,-4.0,0.2,-2.0,-12.5,46.9*,Clc1ccc(Cn2nnc(-c3ccccc3)n2)cc1
/,-9.5,-21.7,-9.5,-1.7,51.6*,Clc1ccc(Cn2nnc(-c3ccc(CN4CCOCC4)cc3)n2)cc1
22.9,1.6,-3.8,44.5*,-14.5,39.2,O=C(OCc1ccccc1)c1cccc(-c2nnn(Cc3ccccc3)n2)c1
/,3.3,-2.3,/,12.5[16.7 µM],-0.4,COC(=O)C[C@H]1CC[C@@H]2[C@H](COc3ccc(NC(=O)c4cscn4)cc3C(=O)N2C)O1
/,6.5,11.5,45.8*,1.7,19.8,CSc1cccc(CNC(=O)C2CCC(=O)N(CCc3ccccc3)C2)c1 (stereo unspecified)
-5.2,-3.3,-13.3,-0.6,-4.3,-1.2,CSc1cccc(CNC(=O)C2CCC(=O)N(CCc3ccccn3)C2)c1 (stereo unspecified)
-21.4,3.1,-19.7,-3.3,179.9*,-2.2,Cc1ccc(-c2nnc(Nc3ccc4c(c3)OCO4)c3ccccc23)cc1S(N)(=O)=O
/,0.7,-8.5,/,16.5[16.7 µM],-3.8,CC(C)NC(=O)N[C@H]1CC[C@@H](CC(=O)O)O[C@H]1CO

# In a second layout: 4 of the compounds above.
mol	MITF act	PglD DTNB	Yeast UUG start	Wnt act	miR-122 sensor	esBAF inh
CC(C)NC(=O)N[C@H]1CC[C@@H](CC(=O)O)O[C@H]1CO	/	0.7	-8.5	/	16.5[16.7 µM]	-3.8
O=C(Nc1nccs1)c1ccc(COc2ccccc2Br)o1	61.4	0.1	-22.3	/	-4.1	49.8*
O=C(Nc1nccs1)c1ccc(COc2ccc(Cl)cc2)o1	16.9	/	/	/	/	/
CN(C)C(=O)c1ccc(COc2ccccc2Br)o1	65.3	-123.6	13.6	/	-3.1	62.1*
